# High-throughput results deposited in PubChem BioAssay by several laboratories.
# CendR NRP1 mod: alters CendR peptide binding to human NRP-1. FAM-RPARPAR peptide binding to NRP-1, fluorescence polarization. O14786. 360,000 compounds, 0.85% hits. AID 602438. inhibition, % at 25 µM;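 active means inhibition or corrected inhibition above about 18%, plus a signal ratio from 0.5 to 1.5, limit read from the data, passing the limit was not always enough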
# MC4R ag barr: activates human MC4R beta-arrestin recruitment | activation, % at 8.9 µM | 360,000 compounds, 0.98% hits | U2OS MC4R beta-arrestin complementation, luminescence; percent of melanotan II response, DMSO zero | P32245;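 active means activation above a per-plate cutoff, the mean activation of sample wells on that plate plus 3 SD, cut at about 8% in these data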
# ASAP1 GAP inh: ASAP1 ArfGAP inhibition; Q9ULH1; ASAP1-stimulated ARF1 GTP hydrolysis, GDP FP detection; inhibition, % at 16.5 µM; 360,000 compounds, 0.19% hits; AID 624377; in the data active means inhibition above about 25%;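 further: 0% = vehicle with enzyme and substrate and 100% = no enzyme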
# UUG fidelity: alters start codon recognition fidelity in yeast. S. cerevisiae UUG-firefly luciferase reporter, luminescence/redox ratio. AID 602363. activity score, % at 18.7 µM. hit rate 0.13% among 350,000;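 active = replicate mean at a twofold rise or more, about +100% in these data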;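 note: firefly luciferase made from a UUG start codon reports start codon fidelity; reporter light over untreated wells divided by growth signal over untreated wells; some hits fall short of that in this replicate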
# ARFGAP1 inh: inhibits rat ARF GTPase activating protein 1 | inhibition, % at 16.5 µM | 360,000 compounds, 0.26% hits | AID 651572 | Arfgap1-stimulated ARF1 GTP hydrolysis, GDP FP detection;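 active means inhibition above a per-plate limit, mean inhibition of low control wells plus 3 SD, cut at about 25% in these data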;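 further: 0% = DMSO wells with enzyme and 100% = wells lacking Arfgap1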
#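 Material: rat Arfgap1 catalytic domain, aa 1-136; also added: human ARF1(Δ1-17)-GTP substrate; compound dosing: one concentration, 16.5 µM, DMSO 1.26%; incubation: GTP hydrolysis reaction 2 h at 25 °C; measured by: Tracer-displacement fluorescence polarization with EDTA stop, 620/688 nm; evaluation: % inhibition from polarization; repeats: one replicate per compound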
# MC4R antag cAMP: antagonists of human melanocortin 4 receptor (MC4R); P32245; MC4R-expressing cells, MTII-stimulated cAMP, LANCE TR-FRET; inhibition, % at 6.5 µM; 360,000 compounds, 0.48% hits; AID 540295;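 active means inhibition above its plate's cutoff, the mean of tested wells on that plate plus 3 SD, cut at about 29% in these data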;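 further: 0% = Melanotan II alone and 100% = Melanotan II plus saturating MCL0020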
#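 Assay system: U2OS-MC4R stable cell line; Also added: Melanotan II; Technique: Eu-cAMP/anti-cAMP TR-FRET, emission 671 nm; Times: 30-min compound, 1-h challenge, 1-h detection, room temperature.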
# MC4R barr ag: human MC4R beta-arrestin agonism confirmation | shares compounds with MC4R ag barr | U2OS MC4R beta-arrestin recruitment, luminescence; scaled DMSO 0%, Melanotan II 100% | AID 602192 | activation, % at 8.9 µM | 2,400 compounds, 31% hits;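 active means mean activation across replicates above the hit cutoff set in the earlier primary screen, cut at about 8% in these data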
# MOR-DOR barr ag: counter-screen for MC4R agonists: agonists of mu-delta opioid heterodimer | activation, % at 9.2 µM | 2,400 compounds, 5.8% hits | U2OS PathHunter beta-arrestin, beta-gal luminescence; percent of deltorphin B response, DMSO zero | shares compounds with MC4R ag barr | AID 602194;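 active means mean activation across replicates exceeds the hit threshold derived in the earlier primary screen, cut at about 18% in these data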;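 further: 100% = deltorphin B at 0.9 µM final and 0% = DMSO alone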
# * marks the source's active call; other numbers are inactive results; / = no result given. Hits are enriched below; roughly 2.3% of the tested compounds scored in any of these assays.
SMILES,CendR NRP1 mod,MC4R ag barr,ASAP1 GAP inh,UUG fidelity,ARFGAP1 inh,MC4R antag cAMP,MC4R barr ag,MOR-DOR barr ag
CCOC(=O)c1c(C)[nH]c(C(=O)COC(=O)c2c(CC)noc2C)c1C,-3,-3,6,-1,-8,-3,/,/
Cc1csc2nc(O)c(C(=O)NCCCc3ccccc3)c(=O)n12,4,2,2,/,-8,4,/,/
Cc1csc2nc(O)c(C(=O)NCCC3=CCCCC3)c(=O)n12,-17,14*,-7,-14,9,-4,-1,3
NC1=NC(=O)/C(=C/c2cn(Cc3ccccc3)c3ccccc23)S1,-43,11*,6,/,-4,5,2,4
Cc1ccc(N(CC(=O)NC(C)c2ccccc2)S(=O)(=O)c2cccs2)cc1 (stereo unspecified),-3,17*,-3,/,6,5,-5,2
Cc1ccc(N(CC(=O)NC(C)c2ccccc2)S(=O)(=O)c2c(C)noc2C)cc1 (stereo unspecified),-71,1,-1,-21,-2,12,/,/
O=C(c1cccnc1)N1C[C@@H]2[C@H](c3ccccc31)[C@@H](CO)N2C(=O)Nc1ccccc1F,/,/,/,3,/,/,/,/
Cc1ccc(OC(=O)c2cccc([N+](=O)[O-])c2)c(-n2nc3ccccc3n2)c1,5,14*,4,/,-2,8,-3,3
C[C@@H]1CN([C@@H](C)CO)S(=O)(=O)c2ccc(C#CC3CC3)cc2O[C@@H]1CN(C)C(=O)c1ccncc1,/,/,/,2,/,/,/,/
S=C(Nc1ccccc1)Nc1ccc(Br)cn1,12,11*,-11,/,1,0,3,6
O=C(COc1ccc2ccccc2c1Br)Nc1ncn[nH]1,-9,13*,/,/,/,12,1,2
Cc1cccc(C)c1OCC(=O)Nc1ncn[nH]1,-24,0,8,-9,-4,1,/,/
Cc1ccc(/C=C/C(=O)Nc2cc(C)on2)cc1,0,19*,10,-9,4,5,2,6
Cc1ccc(-c2[nH]ncc2/C=N/n2c(COc3ccccc3C)nc3ccccc3c2=O)cc1,-2,19*,9,-3,2,4,3,5
Cc1ccccc1OCc1nc2ccccc2c(=O)n1/N=C/c1c[nH]c2ccccc12,-6,29*,-1,-18,7,-3,8,6
CO[C@@H]1CN(C)C(=O)c2cc(NS(C)(=O)=O)ccc2OC[C@@H](C)N(C(=O)C2CCCCC2)C[C@@H]1C,/,/,/,-4,/,/,/,/
Cc1noc(C)c1NC(=O)N(C)C[C@H]1Oc2ncc(C#CC(C)C)cc2C(=O)N([C@@H](C)CO)C[C@H]1C,/,/,/,14,/,/,/,/
Cc1ccc(CN2CC(C(=O)Nc3nnc(SCc4c(Cl)cccc4Cl)s3)CC2=O)cc1 (stereo unspecified),-3,29*,5,/,4,2,8,4
C=CCSc1nnc(NC(=O)C2CC(=O)N(Cc3ccc(C)cc3)C2)s1 (stereo unspecified),-5,0,5,-12,-3,4,/,/
Cc1noc(C)c1NC(=O)Nc1ccc2c(c1)C(=O)N([C@H](C)CO)C[C@@H](C)[C@@H](CN(C)C(=O)Nc1ccccc1)OCCCC[C@@H](C)O2,/,/,/,21,/,/,/,/
Cc1cc(CSc2ccccc2)ccc1NC(=O)c1ccc(Br)cc1,5,9.9*,-16,/,-3,-4,12*,7
COCC(=O)N1[C@H](CO)[C@@H]2c3ccccc3N(C(=O)c3ccccc3)C[C@@H]21,/,/,/,-7,/,/,/,/
Fc1ccc(-n2nnnc2-c2cnc(-c3cccs3)nc2C(F)(F)F)cc1,10,11*,-4,/,-5,21,-1,7
CC(=O)Nc1ccc2c(c1)C(=O)N(C)[C@@H]1CC[C@@H](CC(=O)NCc3ccccc3)O[C@@H]1CO2,/,/,/,-20,/,/,/,/
O=C(N[C@@H]1CC[C@H](CCNC(=O)C2CC2)O[C@@H]1CO)c1ccncc1,/,/,/,17,/,/,/,/

# One compound at a time, from the list above.
# Listed for O=C(COc1ccc2ccccc2c1Br)Nc1ncn[nH]1 → CendR NRP1 mod = -9; MC4R ag barr = 13*; ASAP1 GAP inh = /; UUG fidelity = /; ARFGAP1 inh = /; MC4R antag cAMP = 12; MC4R barr ag = 1; MOR-DOR barr ag = 2
# Listed for NC1=NC(=O)/C(=C/c2cn(Cc3ccccc3)c3ccccc23)S1 → CendR NRP1 mod = -43; MC4R ag barr = 11*; ASAP1 GAP inh = 6; UUG fidelity = /; ARFGAP1 inh = -4; MC4R antag cAMP = 5; MC4R barr ag = 2; MOR-DOR barr ag = 4

# Continued:
SMILES,CendR NRP1 mod,MC4R ag barr,ASAP1 GAP inh,UUG fidelity,ARFGAP1 inh,MC4R antag cAMP,MC4R barr ag,MOR-DOR barr ag
COCC(=O)N(C)C[C@@H]1Oc2cc(C3=CCCCC3)ccc2S(=O)(=O)N([C@H](C)CO)C[C@H]1C,/,/,/,18,/,/,/,/
COc1ccc(/C=N\NC(=O)c2cc(OCC(F)(F)F)ccc2OCC(F)(F)F)cc1,12,11*,5,/,5,-1,6,7
O=C(C1CCC1)N1C[C@H]2[C@@H](c3ccccc31)[C@@H](CO)N2C(=O)c1ccccc1,/,/,/,12,/,/,/,/
C#CCOc1ccc(/C=C2\SC(=S)N(Cc3cccnc3)C2=O)cc1,-1,13*,-4,-9,7,2,3,3
CO[C@@H]1CN(C)C(=O)c2cc(NC(=O)NC3CCCCC3)ccc2OC[C@H](C)N(C(C)=O)C[C@@H]1C,/,/,/,8,/,/,/,/
O=C(/C=C/c1ccc(Cl)c([N+](=O)[O-])c1)Nc1ccc(N2CCCC2)c(Cl)c1,-3,11*,0,/,1,21,7,4
CN1CCN(c2ccc(S(=O)(=O)N3CCCCC3)cc2NC(=O)/C=C/c2ccc(Cl)c([N+](=O)[O-])c2)CC1,14,-2,11,5,12,8,/,/
CCOC(=O)c1ccc(S(=O)(=O)NC2CCC(C)CC2)cc1 (stereo unspecified),9,11*,11,7,23,1,1,7
Cc1ccc(CN2CCN(CCCn3cnc4c(OCc5ccccc5)ncnc43)CC2)cc1,7,3,4,-15,-8,1,/,/
c1ccc(COc2ncnc3c2ncn3CCCN2CCN(Cc3cccc4ccccc34)CC2)cc1,4,20*,4,-4,2,13,10*,7
CCOC(=O)c1cc(NC(=O)c2ccc(C)cc2)c(=O)oc1-c1ccccc1,6,11*,4,-13,-1,14,1,2
O=C(Nc1ccc(F)cc1)c1oc2ccccc2c1NC(=O)C1CCCC1,13,5,/,/,/,5,/,/
O=C(Nc1ccccc1F)c1oc2ccccc2c1NC(=O)C1CC1,4,9.6*,5,-20,-8,2,4,5
CC(/C=N/NC(=O)c1cccnc1)=C\c1ccccc1,0,-2,10,/,-2,-6,/,/
O=C(N/N=C/c1cccc(OCc2ccccc2)c1)c1ccc(Br)cc1,-15,17*,-2,/,-5,5,-2,6
CC(/C=N/NC(=O)c1ccc(Br)cc1)=C\c1ccccc1,8,28*,16,-12,9,1,1,8

# Gathered by group: the compounds so far containing a CF3 group.
SMILES,CendR NRP1 mod,MC4R ag barr,ASAP1 GAP inh,UUG fidelity,ARFGAP1 inh,MC4R antag cAMP,MC4R barr ag,MOR-DOR barr ag
Fc1ccc(-n2nnnc2-c2cnc(-c3cccs3)nc2C(F)(F)F)cc1,10,11*,-4,/,-5,21,-1,7
COc1ccc(/C=N\NC(=O)c2cc(OCC(F)(F)F)ccc2OCC(F)(F)F)cc1,12,11*,5,/,5,-1,6,7
